In PubChem BioAssay AID1481 (The Scripps Research Institute Molecular Screening Center, 2009) one finds inhibition data, which are given here for eleven compounds.

Chains of the proteins cited; added tags and fusions are not shown.
UniProt P55072, whole entry: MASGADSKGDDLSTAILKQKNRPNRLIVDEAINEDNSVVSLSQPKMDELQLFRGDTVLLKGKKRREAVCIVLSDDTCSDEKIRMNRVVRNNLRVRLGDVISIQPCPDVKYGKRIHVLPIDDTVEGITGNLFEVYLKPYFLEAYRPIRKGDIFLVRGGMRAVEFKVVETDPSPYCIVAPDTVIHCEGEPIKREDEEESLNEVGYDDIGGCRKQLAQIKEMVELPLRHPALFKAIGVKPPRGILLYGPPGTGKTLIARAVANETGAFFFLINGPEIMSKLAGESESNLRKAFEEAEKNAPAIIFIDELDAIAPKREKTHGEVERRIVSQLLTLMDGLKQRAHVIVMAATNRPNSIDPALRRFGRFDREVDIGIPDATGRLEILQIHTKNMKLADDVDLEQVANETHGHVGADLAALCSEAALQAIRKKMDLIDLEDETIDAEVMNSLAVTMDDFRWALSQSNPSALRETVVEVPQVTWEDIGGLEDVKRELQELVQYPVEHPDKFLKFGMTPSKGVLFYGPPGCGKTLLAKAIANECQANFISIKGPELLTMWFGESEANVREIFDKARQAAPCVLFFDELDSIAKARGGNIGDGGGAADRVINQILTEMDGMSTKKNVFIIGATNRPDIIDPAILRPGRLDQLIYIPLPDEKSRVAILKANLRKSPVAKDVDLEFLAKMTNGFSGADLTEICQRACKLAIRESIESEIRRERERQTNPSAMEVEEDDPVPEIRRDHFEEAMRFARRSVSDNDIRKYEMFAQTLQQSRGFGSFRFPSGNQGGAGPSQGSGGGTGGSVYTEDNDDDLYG

The entries are a selection whose mix differs from that of the whole data set. Some results for these compounds are left out of this collection, so the calls shown say nothing about other tests. Active and inactive are the calls of the source. Rule as the data show it: active = inhibition above about 15%; inactive = the rest.

This assay has as its target Transitional endoplasmic reticulum ATPase (Homo sapiens) (UniProt P55072). As to the kind of experiment: p97 ATP hydrolysis blockers – biochemical, primary screen (AID 1481).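 Also: 0% = DMSO vehicle and 100% = wells lacking enzyme.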 As to conditions: recombinant p97 ATPase, Kinase-Glo ATP luminescence, 3 h; at 8 µM; active compounds read high. A general note: Kinase-Glo reads ATP consumption through a luciferase reaction.
A word on the inhibition: it is the drop in the measured response relative to a control, in per cent. On to `CN(C)C1CCCC1OC(=O)C(O)(c1ccccc1)c1ccccc1` (stereo unspecified), for which the inhibition was inactive: 3.82%.
Next, `Cc1ccccc1C(=O)NCC1(N2CCCCC2)CCCCC1`: inactive: -5.74%.
Next, `CCN1CCCC(OC(=O)C2(O)c3ccccc3C=Cc3ccccc32)C1` (stereo unspecified): inactive: 2.42%.
Next, `C=CCN1CCN(CCOC(=O)C(O)(c2ccccc2)c2ccccc2)CC1`: inactive: -0.04%; `O=C(NCC1(N2CCCCC2)CCCCC1)c1cc([N+](=O)[O-])ccc1Cl`: inactive: 1.37%; `CCN(CC)CC(C)C(C)OC(=O)C(O)(c1ccccc1)c1ccccc1` (stereo unspecified): inactive: 5.1%.
On to `CC(C)N1C(=O)CC2(CCN(CCOC(=O)C(O)(c3ccccc3)c3ccccc3)CC2)C1=O`, for which the inhibition was inactive: 1.57%.
Next, `O=C(OC1CN2CCC1CC2)C(CO)(c1ccccc1)c1ccccc1` (stereo unspecified): inactive: -2.57%.
Regarding `CN(C)c1cccc(C(=O)NCC2(N(C)C)CCCCC2)c1`, the inhibition is inactive: 1.26%.
Next, `COc1ccc(Br)c(C(=O)NCC2(N3CCCCC3)CCCCC2)c1`: inactive: 8.33%; `COc1cccc(C(=O)NCC2(N3CCCCC3)CCCCC2)c1`: inactive: 2.74%.
